Data as given in patent publication US6544541B1, “Devices and compounds for treating arterial restenosis” (Cardiovascular Solutions, Inc., priority 1999, dated 2003).

Test system: cell proliferation
Assay: discussion of anti-proliferative activity and toxicity of guanidine compounds on cells

Q: Which “inhibition of cell proliferation” value does the source give for N=C(N)NCCCCN [agmatine] here?
A: ineffective as an inhibitor of cell proliferation

Q: How did the toxicity turn out when CC(C=NNC(=N)N)=NNC(=N)N [methylGAG, methylglyoxal bis-(guanylhydrazone)] was run?
A: lack of toxicity

Q: For benzylguanidine, which “inhibition of cell proliferation” value is on record?
A: poor inhibitor of cell proliferation

Q: Which results are given for meta-iodobenzylguanidine?
A: concentration required to inhibit cell proliferation: 10 to 50 µM; toxic concentration (MTT and LDH cytotoxicity assays): > 100 µM
